According to patent publication US20230172895A1, “METHODS OF TREATING OR PREVENTING ORGANOPHOSPHORUS POISONING” (published 2023):
Marks after values point to notes of the source that are not given here.

Sequences of proteins named here, by UniProt entry; tags and fusion partners are left off. A change or cut given only in a name is not applied to a line headed by its entry.
UniProt P06276: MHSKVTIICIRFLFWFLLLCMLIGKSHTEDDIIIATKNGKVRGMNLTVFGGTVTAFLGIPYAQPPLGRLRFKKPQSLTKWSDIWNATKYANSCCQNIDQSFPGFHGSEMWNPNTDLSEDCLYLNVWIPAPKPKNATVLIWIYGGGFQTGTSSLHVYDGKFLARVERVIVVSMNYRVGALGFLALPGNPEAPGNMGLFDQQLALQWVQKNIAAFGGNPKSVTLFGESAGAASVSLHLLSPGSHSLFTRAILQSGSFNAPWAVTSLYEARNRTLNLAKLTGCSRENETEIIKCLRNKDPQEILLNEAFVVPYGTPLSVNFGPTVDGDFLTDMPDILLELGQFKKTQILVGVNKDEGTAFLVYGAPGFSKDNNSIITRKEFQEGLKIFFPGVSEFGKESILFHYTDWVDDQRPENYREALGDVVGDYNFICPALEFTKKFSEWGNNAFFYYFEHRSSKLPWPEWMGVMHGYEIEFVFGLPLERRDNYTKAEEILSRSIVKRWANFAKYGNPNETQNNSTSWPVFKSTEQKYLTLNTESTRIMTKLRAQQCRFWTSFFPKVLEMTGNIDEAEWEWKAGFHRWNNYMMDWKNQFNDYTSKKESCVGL
UniProt P22303: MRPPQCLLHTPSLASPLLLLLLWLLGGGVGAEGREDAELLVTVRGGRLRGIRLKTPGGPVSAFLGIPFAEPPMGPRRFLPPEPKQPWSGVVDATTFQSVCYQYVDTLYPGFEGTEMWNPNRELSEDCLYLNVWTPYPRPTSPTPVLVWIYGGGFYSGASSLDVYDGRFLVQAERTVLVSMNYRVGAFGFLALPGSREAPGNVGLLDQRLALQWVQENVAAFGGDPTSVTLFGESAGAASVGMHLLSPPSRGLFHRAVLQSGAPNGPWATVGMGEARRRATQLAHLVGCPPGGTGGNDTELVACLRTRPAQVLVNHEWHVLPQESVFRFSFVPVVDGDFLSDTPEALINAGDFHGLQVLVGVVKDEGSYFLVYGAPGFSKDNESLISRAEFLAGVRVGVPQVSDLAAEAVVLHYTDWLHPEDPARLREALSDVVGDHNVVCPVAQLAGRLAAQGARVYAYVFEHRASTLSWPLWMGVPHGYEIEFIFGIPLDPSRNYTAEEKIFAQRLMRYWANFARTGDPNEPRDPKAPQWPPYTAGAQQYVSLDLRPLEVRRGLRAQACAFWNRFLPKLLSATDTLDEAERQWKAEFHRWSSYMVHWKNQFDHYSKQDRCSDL

Key:
[1] = cited from earlier work
[2] = Alzheimer's patients; 24 or 32 mg per day or 16 mg per day; cited from earlier work
plasma BuChE = plasma BuChE (Homo sapiens, UniProt P06276); experiment: Estimated plasma BuChE inhibition from plasma rivastigmine (Michaelis-Menten relation, FIG. 3)
[3] = Single-dose crossover pharmacokinetic study of rivastigmine nasal spray and Exelon oral capsule; plasma rivastigmine and NAP226-90 by LC/MS/MS; details: for mean Cmax: mean ±SD
[4] = Safety and adverse events in the single-dose crossover study
AChE in CSF = AChE in CSF (Homo sapiens, UniProt P22303); details: oral; rivastigmine average 8.8 mg/d over 13 weeks, galantamine average 20.8 mg/d; cited from earlier work
BuChE in CSF = BuChE in CSF (Homo sapiens, UniProt P06276); details: oral; rivastigmine average 8.8 mg/d over 13 weeks, galantamine average 20.8 mg/d; cited from earlier work
AChE = AChE (Homo sapiens, UniProt P22303); details: in humans, Cutler et al., 1998, Polinsky; cited from earlier work
[5] = Gobburu et al., 2001; cited from earlier work
CSF AChE = CSF AChE (Homo sapiens, UniProt P22303); experiment: Estimated CSF AChE inhibition from CSF rivastigmine (Michaelis-Menten relation, FIG. 4)
[6] = Rivastigmine plasma to CSF partition; details: expected at intranasal plasma Cmax of at least 7.5 ng/ml (7.5×0.398)
[7] = intranasal AUC of about 40 ng.h/mL over about 12 hours
[8] = mean, 3 mg oral capsule (Exelon), n=16
[9] = mean, 4 mg rivastigmine nasal spray, n=16
[10] = min-max, 3 mg oral capsule (Exelon), n=16
[11] = min-max, 4 mg rivastigmine nasal spray, n=16
[12] = oral route, 3 mg Exelon capsule
[13] = intranasal administration, 4 mg single dose

Compound: C[C@@H](c1cccc(O)c1)N(C)C
- NAP226-90 to rivastigmine plasma ratio ([1]; oral administration of rivastigmine, Kurz et al., (2009)): greater than one
- NAP226-90 to rivastigmine ratio previously measured ([1]; transdermal patch): 0.67

Compound: COc1ccc2c3c1O[C@H]1C[C@@H](O)C=C[C@@]31CCN(C)C2
- adverse side effects [2]: adverse side effects, such as nausea, vomiting and diarrhea

Compound: rivastigmine
- maximal inhibition of plasma BuChE (plasma BuChE; expected at intranasal plasma rivastigmine Cmax of at least 7.5 ng/ml, healthy males, from FIG. 3 (Lefèvre et al., 2009 data)): about 40%
- average plasma BuChE inhibition (plasma BuChE; [7]): about 26%
- mean rivastigmine FI ([3]; after intranasal administration, p<0.005 vs oral): 5.3
- mean rivastigmine FI ([3]; after oral administration): 3.8
- ratio of geometric mean rivastigmine AUC0-∞ intranasal (3 mg equivalent) / oral ([3]; dose-adjusted intranasal vs oral): 1.9
- AUC (0, ∞)OR [geometric mean] ([3]; geometric mean, 3 mg oral capsule (Exelon), n=16): 0.0132 µg·h/mL
- AUC (0, ∞)NS [geometric mean] ([3]; geometric mean, 4 mg rivastigmine nasal spray, n=16): 0.0339 µg·h/mL
- Cmax, OR [geometric mean] ([3]; geometric mean, plasma, 3 mg oral capsule (Exelon), n=16): 6.0 ng/mL
- Cmax, NS [geometric mean] ([3]; geometric mean, plasma, 4 mg rivastigmine nasal spray, n=16): 11.1 ng/mL
- mean (±SD) Tmax ([3]; intranasal formulation, 4 mg): 42 ± 18 min
- mean Cmax ([3]; intranasal formulation, 4 mg): 13.8 ± 10.8 ng/mL
- geometric mean rivastigmine AUC0-∞ ([3]; intranasal, 4 mg (before dose adjustment)): 0.0339 µg·h/mL
- geometric mean rivastigmine AUC0-∞ adjusted to an equivalent 3 mg dose ([3]; intranasal, 33.9×3/4): 25.4 ng·h/mL
- t1/2, OR ([3]; listed as Mean (value marked a = median), 3 mg oral capsule (Exelon), n=16): 1.1^a h
- t1/2, NS ([3]; listed as Mean, 4 mg rivastigmine nasal spray, n=16): 176 min
- AUC (0, ∞)OR [3, 8]: 0.0196 µg·h/mL
- FI, OR (Fluctuation Index) [3, 8]: 3.8
- tmax, OR [3, 8]: 72 min
- AUC (0, ∞)NS [3, 9]: 0.0411 µg·h/mL
- FI, NS (Fluctuation Index) [3, 9]: 5.3
- tmax, NS [3, 9]: 42 min
- Cmax, OR ([3]; mean, plasma, 3 mg oral capsule (Exelon), single dose, healthy young adult men n=16): 8.4 ng/mL
- Cmax, NS ([3]; mean, plasma, 4 mg rivastigmine nasal spray (one spray each nostril), single dose, healthy young adult men n=16): 13.8 ng/mL
- AUC (0, ∞)OR Min-max [3, 10]: 0.0017 to 0.051 µg·h/mL
- FI, OR Min-max [3, 10]: 2.4-6.3
- t1/2, OR Min-max [3, 10]: 48 to 132 min
- tmax, OR Min-max [3, 10]: 30 to 120 min
- AUC (0, ∞)NS Min-max [3, 11]: 0.0087 to 0.1068 µg·h/mL
- FI, NS Min-max [3, 11]: 3.0-8.5
- t1/2, NS Min-max [3, 11]: 78 to 474 min
- tmax, NS Min-max [3, 11]: 18 to 90 min
- Cmax, OR Min-max ([3]; min-max, plasma, 3 mg oral capsule (Exelon), n=16): 1.1 to 26.8 ng/mL
- Cmax, NS Min-max ([3]; min-max, plasma, 4 mg rivastigmine nasal spray, n=16): 3.1 to 49.0 ng/mL
- mean (±SD) Tmax [3, 12]: 72 ± 30 min
- mean Cmax [3, 12]: 8.4 ± 6.8 ng/mL
- geometric mean rivastigmine AUC0-∞ ([3]; oral, 3 mg): 0.0132 µg·h/mL
- nausea [4, 13]: 6%
- vomiting or diarrhoea [4, 13]: no vomiting or diarrhoea
- vomiting ([4]; oral dosing, 3 mg, 34 minutes after dosing, same participant did not vomit after intranasal dosing): One participant vomited
- participants with treatment-emergent adverse events ([4]; oral treatment, 3 mg single dose, n=16, one mild nausea, two mild dizziness): three
- decreased activity of AChE in CSF (AChE in CSF): 42.6%
- decreased activity of BuChE in CSF (BuChE in CSF): 45.6%
- half-life ([1]; humans): 60 to 120 min
- absolute oral bioavailability ([1]; oral, dose of 3 mg, Hossain et al., 2002): about 35%
- median FI (fluctuation index) ([1]; transdermal patch, Kurz et al. 2009, Lefevre et al. 2008): 0.7
- time the carbamyl moiety remains bound to AChE (AChE): about 8.5 h
- rivastigmine plasma to CSF partition coefficient (PC) [5]: 0.398
- maximal inhibition of CSF AChE (CSF AChE; expected at 3 ng/mL CSF rivastigmine Cmax, from FIG. 4 (Cutler et al., 1998 data)): about 50%
- average CSF AChE inhibition (CSF AChE; [7]): about 35%
- CSF rivastigmine Cmax [6]: about 3 ng/mL
